Details: 40° C./75% RH; 6 months

## N#Cc1ccc([C@H]2CCCc3cncn32)cc1.O=P(O)(O)O
  Assay by HPLC, anhydrous, solvent free: 99.2

— patent US12202827B2, “Aldosterone synthase inhibitor” (DAMIAN PHARMA AG, priority 2016, dated 2025)
